The entries are a selection whose mix differs from that of the whole data set. Records with an inconclusive call do not appear. Activity calls are given as the source filed them.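 The calls were made as follows: active = readout at or below -70, meaning at least 70% loss of cells showing the perinucleolar compartment, a nuclear body marking cancer cells; inconclusive = readout between -30 and a set limit; inactive = the rest.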

This experiment is described as follows: High Content Assay for Compounds that inhibit the Assembly of the Perinucleolar Compartment.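 Also: plate controls were DMSO wells for no effect and camptothecin positive control wells for full effect.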 The conditions noted are these: PC3M PTB-GFP, PNC prevalence imaging, 16 h; at 10 µM; hits give low values. An excerpt: High Content Assay for Compounds that inhibit the Assembly of the Perinucleolar Compartment NIH Chemical Genomics Center [NCGC] NIH Molecular Libraries Probe Centers Network [MLPCN] MLPCN Grant: MH082371-01A2 Assay Submitter (PI): Sui Huang, Northwestern University, Feinberg School of Medicine, Cell and Molecular Biology, Chicago, Illinois. The perinucleolar compartment (PNC) is a non-membrane-bound nuclear subdomain that is associated with but structurally distinct from the nucleolus. The PNC is a heritable trait, in which the number of PNCs per cell in daughter cells often mimics that of their mother cells. The PNC is heterogeneous in shape, is stable through interphase, disassembles during mitosis, and reassembles in early G1. The PNC is concentrated with newly synthesized RNA polymerase III (pol III) RNAs (MRP RNA, RNAse P H1 RNA, hY RNAs[hY1, 2, 5], Alu RNA, and SRP [7SL] RNA) and RNA binding proteins (nucleolin, PTB, CUG-BP, KSRP, Raver1, Raver2, and Rod). […] Extensive in vitro studies have shown that the PNC is unique to tumor cells and preferentially forms in tumor cells derived from solid tissues. Examination of cancer cell lines from various origins and malignant capacities has shown that PNC prevalence correlates with the malignancy of tumors and has the potential to be developed as a pan-cancer prognostic marker. […] Although the PNC is associated with a DNA locus and a handful of components have been identified, much remains to be investigated regarding the structure and function of the PNC and its mechanistic link to cancer. We have previously shown that PNC prevalence reduction is a valid strategy to identify compounds that can be used to study the structure and function of the PNC. It is necessary, however, to create a screening platform that is able to test a large number of compounds in an automated fashion. Here we report the development and robustness of an automated whole-cell phenotypic image-based screening assay that is capable of identifying such compounds.
PNC High Content Imaging Assay Procedure: 1. Cells at a density of 75-90% confluency in T175 flasks were harvested using 7 ml TrypLE Express cell dissociation reagent. After dissociation (5 minutes room temperature incubation) 10 ml of complete media was added to the TrypLE/cell suspension. The liquid was transferred to a 50 ml Conical tube and cells were pelleted at 1000 RPM for 5 min. Supernatant was removed and cells were resuspended to a final density of 150-200 cells/ul in complete media. 2. Cells were plated in 5 ul volume (750-1000 cells/well) into 1536 well Black uclear Aurora Low Base plates and allowed to recover and adhere at 37 C in a humidified 5% CO2 incubator for 4 hours. 3. After 4 hour incubation, compound libraries (23 nl of […] in columns 5-48) were transferred to the plates in duplicate using a 1536 well pintool. Camptothecin positive control (59 uM final) was added to column 2 and 1:3 dilutions of camptothecin was added to column 3. DMSO negative controls were present in columns 1 and 4. 4. After a 16 hour incubation in the 37 C incubator, cells were fixed by the addition of 4 ul of 6% EM grade paraformaldehyde (containing 0.1% triton X 100) directly to the cells. The plates were incubated at room temperature for 20 minutes. The liquid was removed using a 32 channel Kalypsys aspirator and the fixed cells were washed twice with 5 ul PBS followed by a final addition of 5 ul PBS containing 1 ug/ml Hoechst 33342. 5. Fixed plates were sealed and sotred at 4C until imaged. 6. Plates were imaged on an InCell 1000 automated microscope using a 20 x objective, a standard FITC filter set, no camera binning, and an exposure time of ~100-150 msec/well. 7. Data analysis. PNC prevalence was determined using the Multitarget analysis module from InCell Workstation software (V3.5 ) and analysis was run on a quad core workstation using the Incell Developer Toolbox (V1.7). […]
As to `c1ccc(CN2CCC(Nc3ccccc3)CC2)cc1`, the activity change (PNC), negative = inhibition was inactive: 40.1%.

In the case of `O=C(OC1CN2CCC1CC2)C1c2ccccc2C=Cc2ccccc21` (stereo not drawn), the activity change (PNC), negative = inhibition is inactive: -20%.

Regarding `N/C(=N\O)c1c(N)no[n+]1[O-]`, the activity change (PNC), negative = inhibition is inactive: -4.53%.

With `CCC(CO)(C(=O)OC1CN2CCC1CC2)c1ccccc1` (stereo not drawn), the activity change (PNC), negative = inhibition is inactive: 30.9%.

In the case of `CCOc1ncccc1C(=O)NCC1(N2CCOCC2)CCCCC1`, the activity change (PNC), negative = inhibition was inactive: -1.87%.

Turning to `CCN1CCC(Nc2cccc(F)c2)CC1`, the activity change (PNC), negative = inhibition was inactive: 17.3%.

Regarding `Fc1ccccc1NC1CCN(Cc2ccccc2)CC1`, the activity change (PNC), negative = inhibition was inactive: 16.7%.

As to `COc1ccc(NC2CCN(CCc3ccccc3)CC2)c(OC)c1`, the activity change (PNC), negative = inhibition was inactive: -23.5%.

For the molecule `O=C(OC1CN2CCC1CC2)C1c2ccccc2Oc2ccccc21` (stereo not drawn), the activity change (PNC), negative = inhibition was inactive: 23.1%.

Take `O=C(NCC1(N2CCOCC2)CCCCC1)c1cc2ccccc2o1`: the activity change (PNC), negative = inhibition was inactive: 13.1%.

Take `O=C(NCC1(N2CCOCC2)CCCCC1)c1cc(=O)[nH]c2ccccc12`: the activity change (PNC), negative = inhibition is inactive: 8.49%.

As to `CN1CCN(CCOC(=O)C(O)(c2ccccc2)c2ccccc2)CC1`, the activity change (PNC), negative = inhibition was inactive: -14.5%.

For the molecule `N#CC1(Nc2ccccc2)CCN(CCc2ccccc2)CC1`, the activity change (PNC), negative = inhibition was inactive: -25.8%.

Values taken from PubChem BioAssay AID2417 (National Center for Advancing Translational Sciences (NCATS), 2010).
